US10316008B2, “KCNQ potassium channel agonist, and preparation method therefor and use thereof” (SHANGHAI INSTITUTE OF MATERIA MEDICA, CHINESE ACADEMY OF …, priority 2014, dated 2019)
pEC50: −log10 of the molar value.

By UniProt entry, the sequences of proteins in these tests, tags left out.
UniProt O43525, whole entry: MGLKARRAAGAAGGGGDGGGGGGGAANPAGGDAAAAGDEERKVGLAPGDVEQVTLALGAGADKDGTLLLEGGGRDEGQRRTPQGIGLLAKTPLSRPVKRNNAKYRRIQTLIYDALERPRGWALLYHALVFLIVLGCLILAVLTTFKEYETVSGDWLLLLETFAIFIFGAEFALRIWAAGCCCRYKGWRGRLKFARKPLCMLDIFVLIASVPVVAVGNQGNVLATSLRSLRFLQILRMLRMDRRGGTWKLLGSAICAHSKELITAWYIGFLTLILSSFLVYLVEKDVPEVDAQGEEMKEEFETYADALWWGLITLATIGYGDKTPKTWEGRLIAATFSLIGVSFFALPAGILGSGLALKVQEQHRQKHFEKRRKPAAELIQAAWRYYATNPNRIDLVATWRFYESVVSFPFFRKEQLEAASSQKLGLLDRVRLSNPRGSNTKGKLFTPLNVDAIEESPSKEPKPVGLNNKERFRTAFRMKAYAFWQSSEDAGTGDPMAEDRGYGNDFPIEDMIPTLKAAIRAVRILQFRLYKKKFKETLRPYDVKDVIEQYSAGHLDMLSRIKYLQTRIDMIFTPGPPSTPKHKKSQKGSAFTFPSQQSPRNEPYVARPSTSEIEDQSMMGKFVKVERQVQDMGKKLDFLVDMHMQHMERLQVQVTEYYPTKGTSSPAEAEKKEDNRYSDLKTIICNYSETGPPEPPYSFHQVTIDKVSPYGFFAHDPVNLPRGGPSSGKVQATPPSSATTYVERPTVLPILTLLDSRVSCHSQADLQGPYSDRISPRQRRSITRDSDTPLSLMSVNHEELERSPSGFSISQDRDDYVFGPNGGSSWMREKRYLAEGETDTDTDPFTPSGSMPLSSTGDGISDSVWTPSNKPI
UniProt O43526, whole entry: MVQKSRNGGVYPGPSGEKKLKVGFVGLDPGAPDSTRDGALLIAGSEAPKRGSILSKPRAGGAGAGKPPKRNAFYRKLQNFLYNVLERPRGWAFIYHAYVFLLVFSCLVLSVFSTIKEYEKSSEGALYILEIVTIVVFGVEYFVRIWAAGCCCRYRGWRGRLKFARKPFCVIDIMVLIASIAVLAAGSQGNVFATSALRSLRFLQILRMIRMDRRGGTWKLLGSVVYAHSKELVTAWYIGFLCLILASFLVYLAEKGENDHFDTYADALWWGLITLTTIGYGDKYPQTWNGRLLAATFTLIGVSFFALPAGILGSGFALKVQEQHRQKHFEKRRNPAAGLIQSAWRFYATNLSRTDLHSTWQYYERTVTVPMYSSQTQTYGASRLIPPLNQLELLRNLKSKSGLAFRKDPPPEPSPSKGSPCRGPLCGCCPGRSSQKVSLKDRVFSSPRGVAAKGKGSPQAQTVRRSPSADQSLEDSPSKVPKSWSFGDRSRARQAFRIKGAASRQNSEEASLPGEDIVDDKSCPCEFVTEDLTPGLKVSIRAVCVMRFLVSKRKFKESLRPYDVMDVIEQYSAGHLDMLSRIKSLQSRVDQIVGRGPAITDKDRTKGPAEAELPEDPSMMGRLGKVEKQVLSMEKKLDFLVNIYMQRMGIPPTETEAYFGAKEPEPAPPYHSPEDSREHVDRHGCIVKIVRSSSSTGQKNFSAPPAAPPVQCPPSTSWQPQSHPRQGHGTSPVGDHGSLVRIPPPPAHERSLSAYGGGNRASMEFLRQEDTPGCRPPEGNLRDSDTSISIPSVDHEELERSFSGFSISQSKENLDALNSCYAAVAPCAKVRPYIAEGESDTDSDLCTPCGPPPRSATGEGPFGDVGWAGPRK

Tests used:
[1] = mice, orally administered (WO2013060097); cited from earlier work
[2] = Safety assessment, lethal dose after single oral administration; assay type: in vivo
[3] = biological target: KCNQ2/3 heterotetramer channel (Homo sapiens, UniProt O43525+O43526); test: KCNQ2/3 heterotetramer channel dose-response curve in CHO-K1 cells cotransfected with KCNQ2 and KCNQ3 plasmids; settings: FIG. 2, Boltzmann fit
Description: The culture medium for Chinese hamster oocytes (CHO-K1) (Culture Collection of Chinese Academy of Sciences): 50/50 DMEM/F-12 (Cellgro, Manassas, Va.), added with 10% fetal bovine serum (FBS) (Gibco, Australia) and 2 mM L-glutamic acid (Invitrogen). Expression of KCNQ channels: 24 h before transfection, CHO-K1 spreaded on a dish with a diameter of 60 mm. Lipofectamine 2000™ agent (Invitrogen) was used for Transfection according to the protocol thereof. GFP (green fluorescent protein) was cotransfected to be used as a indication of successful converting into KCNQ plasmid.
Whole-cell voltage-clamp recording was performed on an Axopatch-200B amplifier (Molecular Devices, Sunnyvale, Calif.) at room temperature. The electrode was made by drawing borosilicate glass capillary (World Precision Instruments, Sarasota, Fla.). The electric resistance of the electrode filled with an intracellular fluid is 3 to 5 MΩ. The composition of the intracellular fluid (1 L) was as follows: 145 mM KCl(Sigma), 1 mM MgCl2(Sigma), 5 mM EGTA(Sigma), 10 mM HEPES(Sigma) and 5 mM MgATP(Sigma) (pH was adjusted to 7.3 with KOH). During the recording, an extracellular fluid was continuously perfused by using a BPS perfusion system (ALA Scientific Instruments, Westburg, N.Y.). […]

Q: With `C#CCN(Cc1ccc(F)cc1)c1ccc(NC(=O)OCC)c(N)c1` as the molecule, how does the “exposure amount in brain tissue relative to plasma” value [1] read?
A: 2.4 time

Q: And the “dose at which death of rats can be observed” value [2]?
A: greater than 30 mg/kg

Q: What about the pEC50 [3] of the same molecule?
A: 5.72
